Measured values as given in PubChem BioAssay (NCI).
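Assay format: 96-well plates, 48-hour exposure. GI50 marks 50% less growth.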

Experiments:
Assay in all cases: DTP human tumour cell line panel, 48 h; in the data active = GI50 below about 0.43 µM; inactive = the rest
MDA-N = system: MDA-N
HCT-15 colon = system: HCT-15 colon
NCI-H522 lung = system: NCI-H522 lung
786-0 renal = system: 786-0 renal
MOLT-4 leukemia = system: MOLT-4 leukemia
TK-10 renal = system: TK-10 renal
UO-31 renal = system: UO-31 renal
HOP-62 NSCLC = system: HOP-62 NSCLC
SNB-75 CNS = system: SNB-75 CNS
SK-OV-3 ovarian = system: SK-OV-3 ovarian
IGROV1 ovarian = system: IGROV1 ovarian
SK-MEL-28 melanoma = system: SK-MEL-28 melanoma
OVCAR-4 ovarian = system: OVCAR-4 ovarian
EKVX NSCLC = system: EKVX NSCLC
CAKI-1 renal = system: CAKI-1 renal
SK-MEL-2 melanoma = system: SK-MEL-2 melanoma
HCT-116 colon = system: HCT-116 colon
NCI-H226 lung = system: NCI-H226 lung
HCC-2998 colon = system: HCC-2998 colon
LOX IMVI melanoma = system: LOX IMVI melanoma
RXF 393 renal = system: RXF 393 renal
SF-295 CNS = system: SF-295 CNS
MCF7 breast = system: MCF7 breast
K-562 leukemia = system: K-562 leukemia
MALME-3M melanoma = system: MALME-3M melanoma
NCI-H23 lung = system: NCI-H23 lung
OVCAR-3 ovarian = system: OVCAR-3 ovarian
A549 NSCLC = system: A549 NSCLC
UACC-257 melanoma = system: UACC-257 melanoma
SK-MEL-5 melanoma = system: SK-MEL-5 melanoma
KM12 colon = system: KM12 colon
CCRF-CEM leukemia = system: CCRF-CEM leukemia
ACHN renal = system: ACHN renal
SN12C renal = system: SN12C renal
NCI-H460 lung = system: NCI-H460 lung
UACC-62 melanoma = system: UACC-62 melanoma
NCI-H322M lung = system: NCI-H322M lung
RPMI-8226 leukemia = system: RPMI-8226 leukemia
NCI/ADR-RES ovarian = system: NCI/ADR-RES ovarian
SNB-19 CNS = system: SNB-19 CNS
SR leukemia = system: SR leukemia
HS 578T breast = system: HS 578T breast
PC-3 prostate = system: PC-3 prostate
U251 CNS = system: U251 CNS
MDA-MB-435 = system: MDA-MB-435
COLO 205 colon = system: COLO 205 colon
BT-549 breast = system: BT-549 breast
SF-268 CNS = system: SF-268 CNS
OVCAR-5 ovarian = system: OVCAR-5 ovarian
HT29 colon = system: HT29 colon
M14 melanoma = system: M14 melanoma
MDA-MB-231 breast = system: MDA-MB-231 breast
SW-620 colon = system: SW-620 colon
SF-539 CNS = system: SF-539 CNS
A498 renal = system: A498 renal
OVCAR-8 ovarian = system: OVCAR-8 ovarian
HL-60(TB) leukemia = system: HL-60(TB) leukemia
DU-145 prostate = system: DU-145 prostate
HOP-92 NSCLC = system: HOP-92 NSCLC
T-47D breast = system: T-47D breast

Measured: GI50

CC(=O)n1c(=O)n(C2CCN(CCCC(=O)c3ccc(F)cc3)CC2)c2ccccc21
inactive: MDA-N 32.1 µM | HCT-15 colon 52.6 µM | NCI-H522 lung 31.4 µM | 786-0 renal 27.6 µM | MOLT-4 leukemia 18.7 µM | TK-10 renal 58.1 µM | UO-31 renal 40.4 µM | HOP-62 NSCLC 33 µM | SNB-75 CNS 59.5 µM | SK-OV-3 ovarian > 100 µM | IGROV1 ovarian 61.8 µM | SK-MEL-28 melanoma 26.6 µM | OVCAR-4 ovarian 34.3 µM | EKVX NSCLC 88.8 µM | CAKI-1 renal 62.2 µM | SK-MEL-2 melanoma 28 µM | HCT-116 colon 25.5 µM | NCI-H226 lung 30.7 µM | HCC-2998 colon 30.2 µM | LOX IMVI melanoma 22.5 µM | RXF 393 renal 33.4 µM | SF-295 CNS 32.6 µM | MCF7 breast 27 µM | K-562 leukemia 21.6 µM | MALME-3M melanoma 17.3 µM | NCI-H23 lung 57.1 µM | OVCAR-3 ovarian 47.4 µM | A549 NSCLC 55.2 µM | UACC-257 melanoma 19.9 µM | SK-MEL-5 melanoma 15 µM | KM12 colon 29.7 µM | CCRF-CEM leukemia 21.9 µM | ACHN renal 73 µM | SN12C renal 89.2 µM | NCI-H460 lung 27.9 µM | UACC-62 melanoma 31.2 µM | NCI-H322M lung 45.7 µM | RPMI-8226 leukemia 19.3 µM | NCI/ADR-RES ovarian 54.7 µM | SNB-19 CNS > 100 µM | SR leukemia 15.8 µM | HS 578T breast 33.7 µM | PC-3 prostate 58.1 µM | U251 CNS 55.2 µM | MDA-MB-435 = 26.1 µM | COLO 205 colon 17.5 µM | BT-549 breast 39.5 µM | SF-268 CNS 62.1 µM | OVCAR-5 ovarian 75.5 µM | HT29 colon 21.8 µM | M14 melanoma 18.3 µM | MDA-MB-231 breast 43.6 µM | SW-620 colon 40.6 µM | SF-539 CNS 25.3 µM | A498 renal 69.4 µM | OVCAR-8 ovarian 52.9 µM | HL-60(TB) leukemia 14.3 µM | DU-145 prostate > 100 µM | HOP-92 NSCLC 32.7 µM | T-47D breast 31.1 µM
